Test system: E. Coli Juhl
Assay: Acute mouse protection test
Format: in vivo
Details: mice infected intraperitoneally with E. Coli JUHL, dosed at 1 and 5 hours post-infection

Structure (SMILES): CCCC(N)C(=O)NC1CCN(c2nc3c(cc2F)c(=O)c(C(=O)O)cn3C2CC2)C1 (stereo not shown) [Example 26p]
- Oral (ED50): 1.7 mg/kg/day
